Measured values as given in publication PMC5623949, “Exploiting the 2-Amino-1,3,4-thiadiazole Scaffold To Inhibit Trypanosoma brucei Pteridine Reductase in Support of Early-Stage Drug Discovery” (ACS Omega, 2017).

Target: T1, TbPTR1 (Trypanosoma brucei brucei, UniProt O76290)
T1 construct: made in house
T1 sequence (O76290 1-268): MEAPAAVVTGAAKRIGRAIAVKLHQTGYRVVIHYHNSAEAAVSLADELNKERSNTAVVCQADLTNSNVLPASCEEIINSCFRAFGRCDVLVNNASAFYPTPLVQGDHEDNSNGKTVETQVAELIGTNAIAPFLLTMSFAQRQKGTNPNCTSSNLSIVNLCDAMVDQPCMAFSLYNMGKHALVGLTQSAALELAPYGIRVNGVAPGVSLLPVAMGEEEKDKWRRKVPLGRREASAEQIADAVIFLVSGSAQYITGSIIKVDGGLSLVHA
Assay: biochemical

IC50: 90 nM
Compound: CCc1nc(N)nc(N)c1-c1ccc(Cl)cc1 [pyrimethamine, reference compound]
